Antibody variant affinities, Ab-14 light chain, assay B

Reference: Li et al. 2023, doi:10.1038/s41467-023-39022-2. File: FLAb, binding data.

Antigen: PDVDLGDISGINAS, a 14-residue peptide of the SARS-CoV-2 spike HR2 region.

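The starting antibody came from a phage panning campaign against this peptide. The variants were designed computationally from a first round of random CDR variants and then made and measured. Their group label is 14L_En_Gibbs (En: ensemble of fine-tuned language models; Gibbs: Gibbs sampling). In AlphaSeq, yeast of one mating type display the scFv and yeast of the other type display the target. Mating (16 h, 30 °C) was followed by selection of diploids and sequencing of their barcodes. Scores were corrected for input abundance and mapped to Kd with protein pairs of known affinity run in the same pool. Each pool was mated in six replicate cultures.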

Parent scFv Ab-14: VH joined to VL by a 15-residue (Gly4Ser)3 linker. Changes lie in the light chain CDRs alone.
VH: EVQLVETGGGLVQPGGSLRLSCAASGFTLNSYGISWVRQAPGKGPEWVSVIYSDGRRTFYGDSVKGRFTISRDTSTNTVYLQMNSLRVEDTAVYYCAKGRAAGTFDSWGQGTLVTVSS
VL: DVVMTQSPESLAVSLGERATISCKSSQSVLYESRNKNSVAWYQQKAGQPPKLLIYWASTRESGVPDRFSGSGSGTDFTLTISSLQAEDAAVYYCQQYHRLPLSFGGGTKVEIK

The whole VL of each variant is written out. Values are log10 of the apparent Kd in nM; lower means stronger binding. The mean shown is taken over the replicates in which the pair was detected. "nd" marks a missing value. The strain was present, yet no cells mated with the target were sequenced in that replicate, which points to weak or no binding.

| VL | replicates, log10 nM | log10 Kd (nM), mean | empty controls |
|---|---|---|---|
| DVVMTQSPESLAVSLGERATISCAISILDESVTGHYSNVAWYQQKAGQPPKLLIYEQHVTRMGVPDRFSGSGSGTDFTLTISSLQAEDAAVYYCQQYFRLPLIFGGGTKVEIK | 1.47 nd 1.90 nd nd 0.92 | 1.43 | 0 of 18 |
| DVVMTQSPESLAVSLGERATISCQMKASLLQGIYIQDSVAWYQQKAGQPPKLLIYSSDIRELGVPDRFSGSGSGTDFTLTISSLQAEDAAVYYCQQYHHLPLSFGGGTKVEIK | 0.90 1.15 1.33 1.23 1.80 1.43 | 1.31 | 1 of 18 (2.20) |
| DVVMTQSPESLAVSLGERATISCSMFEKEYAELQNENNIAWYQQKAGQPPKLLIYDTTARMVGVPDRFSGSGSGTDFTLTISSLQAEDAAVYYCQHYFRLPLLFGGGTKVEIK | nd 1.74 0.24 0.88 1.17 1.46 | 1.10 | 0 of 18 |
| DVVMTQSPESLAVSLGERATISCLIKGMVDGQYYWQNNIAWYQQKAGQPPKLLIYDSEERDRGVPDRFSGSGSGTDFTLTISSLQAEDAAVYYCQQYNHLPLSFGGGTKVEIK | 0.33 0.26 0.10 -0.09 0.05 0.28 | 0.15 | 0 of 18 |
| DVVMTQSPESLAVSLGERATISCALQMETLGQKQKQNNIAWYQQKAGQPPKLLIYNQDMRTAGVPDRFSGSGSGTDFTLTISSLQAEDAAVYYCQQYYMLPLSFGGGTKVEIK | 0.59 0.57 0.76 0.19 0.39 0.34 | 0.47 | 1 of 18 (3.73) |
| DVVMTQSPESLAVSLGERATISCKLFDETSSEQVNARAVAWYQQKAGQPPKLLIYDSLAVHEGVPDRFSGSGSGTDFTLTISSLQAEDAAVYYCQQYHMLPLSFGGGTKVEIK | nd nd nd nd 2.12 nd | 2.12 | 0 of 18 |
| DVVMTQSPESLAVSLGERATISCQITGEQSMRTQGNWNIAWYQQKAGQPPKLLIYQAEQKVHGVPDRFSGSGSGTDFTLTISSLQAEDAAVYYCQQYDRLPLAFGGGTKVEIK | 1.92 1.45 0.84 0.86 1.25 0.99 | 1.22 | 1 of 18 (2.18) |
| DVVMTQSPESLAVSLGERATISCHSNGSLRMDSRNKNHVAWYQQKAGQPPKLLIYDTTVRESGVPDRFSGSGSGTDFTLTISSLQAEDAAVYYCQQYMRLPLVFGGGTKVEIK | -0.11 -0.36 -0.36 -0.49 -0.27 -0.21 | -0.30 | 0 of 18 |
| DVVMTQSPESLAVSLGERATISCKLPHLSFVHDRMKNNVAWYQQKAGQPPKLLIYDLNRKAAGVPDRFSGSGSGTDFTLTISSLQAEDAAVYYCQQYDRLPLTFGGGTKVEIK | 0.79 0.46 0.57 0.38 0.94 0.63 | 0.63 | 1 of 18 (2.26) |
| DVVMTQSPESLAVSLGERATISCKLVGDMQEDKNPSENIAWYQQKAGQPPKLLIYEMSSVEQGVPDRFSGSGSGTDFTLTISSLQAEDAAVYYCQQYARLPLEFGGGTKVEIK | nd nd 2.61 nd 2.47 nd | 2.54 | 1 of 18 (2.85) |
| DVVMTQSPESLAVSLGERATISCSLAYTQHFGQAGGKAVAWYQQKAGQPPKLLIYEVQMREQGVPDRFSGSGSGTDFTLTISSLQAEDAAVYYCQQYFRLPLGFGGGTKVEIK | 1.34 1.61 0.81 1.56 0.91 1.54 | 1.30 | 0 of 18 |
| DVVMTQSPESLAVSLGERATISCQFFSRWGQLTEIRNAVAWYQQKAGQPPKLLIYDATEVADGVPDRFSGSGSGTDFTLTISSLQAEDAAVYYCQQYMHLPLTFGGGTKVEIK | 1.03 1.08 1.02 1.09 0.83 1.22 | 1.04 | 1 of 18 (2.42) |
| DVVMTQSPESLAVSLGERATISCSFHEINFEGLATTANVAWYQQKAGQPPKLLIYNASYLFEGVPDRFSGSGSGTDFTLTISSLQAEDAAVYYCQQYFRLPLTFGGGTKVEIK | 0.99 1.74 2.25 1.25 1.60 1.56 | 1.56 | 0 of 18 |
| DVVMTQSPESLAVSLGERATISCQIEWYNSTLTEAKNSVAWYQQKAGQPPKLLIYGVEHRMNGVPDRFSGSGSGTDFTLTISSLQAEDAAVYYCQQYMRLPLEFGGGTKVEIK | 0.79 0.49 0.26 0.87 0.05 0.55 | 0.50 | 0 of 18 |
| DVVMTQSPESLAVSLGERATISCHITSQEVGTIGAESNVAWYQQKAGQPPKLLIYETNTLLYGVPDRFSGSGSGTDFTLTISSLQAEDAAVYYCQQYSKLPLMFGGGTKVEIK | 1.39 1.49 1.51 1.16 1.42 1.46 | 1.41 | 2 of 18 (3.15) |
| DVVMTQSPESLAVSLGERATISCSLSEMEAGRDAANKSIAWYQQKAGQPPKLLIYAKELMMEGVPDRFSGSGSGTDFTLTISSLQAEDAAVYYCQQYHRLPLAFGGGTKVEIK | 1.27 1.63 2.01 2.44 4.51 2.36 | 2.37 | 0 of 18 |
| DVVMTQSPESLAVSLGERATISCSVDHPFQGDNGRKASIAWYQQKAGQPPKLLIYNATIRDHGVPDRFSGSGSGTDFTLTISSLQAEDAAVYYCQQYFRLPLFFGGGTKVEIK | 0.50 0.55 0.37 0.35 0.28 0.36 | 0.40 | 2 of 18 (2.80) |
| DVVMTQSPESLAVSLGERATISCKLRLHNLDFYEVENSIAWYQQKAGQPPKLLIYGESNRAHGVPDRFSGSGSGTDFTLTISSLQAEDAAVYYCQQYYRLPLNFGGGTKVEIK | 1.74 3.12 1.18 1.38 1.37 1.41 | 1.70 | 0 of 18 |
| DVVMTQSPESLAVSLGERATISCKLNEDVGNHTHDQKNIAWYQQKAGQPPKLLIYDESRVDRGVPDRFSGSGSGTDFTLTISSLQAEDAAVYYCQQYAHLPLSFGGGTKVEIK | 1.65 1.77 1.69 1.15 1.21 1.39 | 1.48 | 1 of 18 (3.82) |
| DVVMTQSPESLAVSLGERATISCKLRHHNLDFYEVENNIAWYQQKAGQPPKLLIYGESMRAAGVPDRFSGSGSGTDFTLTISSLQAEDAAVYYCQQYYRLPLNFGGGTKVEIK | 1.53 1.24 1.09 2.25 2.05 1.20 | 1.56 | 0 of 18 |
| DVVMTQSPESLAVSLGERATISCHLNGEWNHGANRDNNIAWYQQKAGQPPKLLIYEAQTVAAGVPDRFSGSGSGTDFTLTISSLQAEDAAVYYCQDYFRLPIIFGGGTKVEIK | -0.12 -0.15 -0.09 0.02 -0.17 0.01 | -0.08 | 0 of 18 |
| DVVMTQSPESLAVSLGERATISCQLGDNQVGETLMQDAIAWYQQKAGQPPKLLIYHDAFRADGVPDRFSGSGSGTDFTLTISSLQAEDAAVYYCQQYFRLPLLFGGGTKVEIK | 0.76 0.84 0.28 0.57 0.66 1.12 | 0.71 | 0 of 18 |
| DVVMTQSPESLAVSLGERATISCSLPESLPQQQTNVNAVAWYQQKAGQPPKLLIYGAQHTAVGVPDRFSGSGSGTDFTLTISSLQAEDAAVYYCQQYGRLPLTFGGGTKVEIK | 0.54 0.55 0.05 -0.13 0.10 0.27 | 0.23 | 0 of 18 |
| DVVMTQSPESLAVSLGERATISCSLAYTQHFGQKGGKAVAWYQQKAGQPPKLLIYEVQMRCQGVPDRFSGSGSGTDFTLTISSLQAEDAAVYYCQQYFRLPLGFGGGTKVEIK | nd nd 3.19 nd nd nd | 3.19 | 1 of 18 (0.64) |

The 2 strongest on average among those seen in every replicate, once more:

{"VL": "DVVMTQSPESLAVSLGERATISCHSNGSLRMDSRNKNHVAWYQQKAGQPPKLLIYDTTVRESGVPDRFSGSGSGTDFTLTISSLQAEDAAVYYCQQYMRLPLVFGGGTKVEIK", "replicates, log10 nM": "-0.11 -0.36 -0.36 -0.49 -0.27 -0.21", "log10 Kd (nM), mean": "-0.30", "empty controls": "0 of 18"}
{"VL": "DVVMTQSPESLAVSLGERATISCHLNGEWNHGANRDNNIAWYQQKAGQPPKLLIYEAQTVAAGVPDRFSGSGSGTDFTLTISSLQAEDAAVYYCQDYFRLPIIFGGGTKVEIK", "replicates, log10 nM": "-0.12 -0.15 -0.09 0.02 -0.17 0.01", "log10 Kd (nM), mean": "-0.08", "empty controls": "0 of 18"}

The authors' rule: three or more of the six replicates give a measured affinity, fewer mean a poor binder. Three control strains display no target. For all light chain designs, 4% of the pairings with them gave a signal, with a median of 2.64 and one signal in twenty below 1.59, so weak values seen in few replicates may be background. Also given: how often the same scFv was detected with the empty control strains, with their mean in brackets. A sequence measured in both rounds can read differently, since the two assays cover different ranges.